The list is not random: actives were taken first. Their share in the collection is about 1.7%.
Dyrk1A ADPGlo – blocks rat Dyrk1A kinase activity | actives 0.43% (n = 310,000) | inhibition, % at 12.5 µM | ADP-Glo luminescence, NFATc1 peptide | AID 504441; in the data active = inhibition above about 50%;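 also: plate controls were vehicle with enzyme for no effect and no enzyme for full effect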
CAL PDZ FP-1 – inhibitors of human CAL PDZ peptide binding | Q9HD26 | purified CAL PDZ, TMR-peptide fluorescence polarization, 1 h | inhibition, % at 24.9 µM | actives 0.92% (n = 300,000);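 active = mean inhibition of at least 30% with at least half of replicates also reaching 30%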;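 also: 0% = DMSO neutral control and 100% = excess unlabeled competitor peptide PRC23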
Yeast UUG start – alters start codon recognition fidelity in yeast. 350,000 tested, 0.13% active. activity score, % at 18.7 µM. S. cerevisiae UUG-firefly luciferase reporter, luminescence/redox ratio;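 active = replicate mean at a twofold rise or more, about +100% in these data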;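 also: firefly luciferase made from a UUG start codon reports start codon fidelity; reporter light over untreated wells divided by growth signal over untreated wells; some hits fall short of that in this replicate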
dFosB activator – enhances mouse delta FosB homodimer DNA binding; P13346; purified delta FosB, TAMRA-CDK5 oligo fluorescence polarization; percent of positive-control signal above neutral wells; activation, % at 25 µM; actives 0.99% (n = 340,000); AID 493131;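 active = mean activation above about 17%, with every replicate also reaching it, limit read from the data, passing the limit was not always enough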
CAL PDZ FP-2 – blocks peptide binding to human CAL PDZ domain; Q9HD26; purified CAL PDZ, TMR-peptide fluorescence polarization, 1 h; inhibition, % at 20 µM; actives 0.02% (n = 330,000); AID 504414;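 active = highest replicate inhibition of at least 40%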;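 also: plate controls were DMSO neutral control wells for no effect and unlabeled competitor peptide control wells for full effect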
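Read-out basis: mP drop reported as inhibition | Assay system: Tagged CAL PDZ protein CerCALP, purified | Benchmarks: Unlabelled peptide for full inhibition, DMSO wells as neutral | Schedule: 1 h incubation at room temperature before polarization reading | Buffer or medium: Sodium phosphate/NaCl buffer pH 7.4 with TCEP, IgG, Thesit | Doses: Single point, 20 µM | Measured by: Fluorescence polarization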
CDK5 p35 inh – CDK5/p35 (human) kinase inhibition. Q00535+Q15078. Recombinant CDK5/p35, ADP-Glo luminescence, 60 min. inhibition, % at 10 µM. actives 0.01% (n = 330,000). AID 488839;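 active = highest replicate inhibition of at least 50% and at least 75% of replicates reaching 50%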;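 also: plate controls were DMSO neutral control for no effect and GW8510 at 10 µM for full effect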
Numbers without * were called inactive.

Results for COc1ccc(OC)c(C(C[N+](=O)[O-])c2c(C)cc3ccccn23)c1 (configuration not stated) ?
Dyrk1A ADPGlo: 0.6; CAL PDZ FP-1: 47.9*; Yeast UUG start: -3.2; dFosB activator: -1.9; CAL PDZ FP-2: -0.3; CDK5 p35 inh: -0.8

What do the screens show for `COc1ccccc1CNC(=O)C[C@H]1CC[C@@H]2[C@H](COc3ccc(NC(=O)Nc4ccc(F)c(F)c4)cc3C(=O)N2C)O1`?
Yeast UUG start: -5.3

How did COc1ccc(NC(=O)C#Cc2ccccc2)cc1 do in these assays?
Dyrk1A ADPGlo: 9.6; CAL PDZ FP-1: 63.1*; Yeast UUG start: -4.9; dFosB activator: 0.7; CAL PDZ FP-2: 1.2; CDK5 p35 inh: 1.0

Results for O=C(C#Cc1ccccc1)Nc1ccc(F)cc1 ?
CAL PDZ FP-1: -5.0; Yeast UUG start: -8.0; dFosB activator: -4.1; CAL PDZ FP-2: -0.5; CDK5 p35 inh: -0.2

How did CC(C)NC(=O)N(C)C[C@H]1Oc2c(NS(=O)(=O)c3ccccc3)cccc2C(=O)N([C@@H](C)CO)C[C@H]1C do in these assays?
Yeast UUG start: 0.3

Results for COc1ccc(CN(C#N)c2nc(C)cc(C)n2)cc1 ?
CAL PDZ FP-1: -2.4; Yeast UUG start: -3.2; dFosB activator: -1.7; CAL PDZ FP-2: -1.4; CDK5 p35 inh: -0.2

How did Cc1cc(C)nc(N(C#N)Cc2cccc([N+](=O)[O-])c2)n1 do in these assays?
Dyrk1A ADPGlo: 2.7; CAL PDZ FP-1: 45.5*; dFosB activator: 2.2; CAL PDZ FP-2: -1.4; CDK5 p35 inh: -2.1

How did Cc1noc(C)c1NC(=O)N(C)C[C@@H]1Oc2ccc(NC(=O)C3CCCCC3)cc2C(=O)N([C@H](C)CO)C[C@@H]1C do in these assays?
Yeast UUG start: -7.5

How did Cc1ccc(-c2nn(CC(=O)NCc3cc(-c4nn(C)c(=O)c5ccccc45)ccc3C)c(=O)c3ccccc23)cc1 do in these assays?
Dyrk1A ADPGlo: 7.2; CAL PDZ FP-1: 39.9*; Yeast UUG start: -10.2; dFosB activator: -5.4; CDK5 p35 inh: -1.0

Results for CCN1/C(=C/c2ccc3cc(C)ccc3[n+]2CC)Sc2cc(C)c(C)cc21 ?
Dyrk1A ADPGlo: 1.3; CAL PDZ FP-1: 2.4; dFosB activator: -66.8; CAL PDZ FP-2: 12.8; CDK5 p35 inh: 3.1

How did CCN1/C(=C/c2ccc3cc(C)ccc3[n+]2CC)Sc2ccccc21 do in these assays?
Dyrk1A ADPGlo: 5.4; CAL PDZ FP-1: 2.0; dFosB activator: 52.4*; CAL PDZ FP-2: 6.2; CDK5 p35 inh: 1.9

How did O=[N+]([O-])/C=C/c1c(OCc2ccccc2)ccc2ccccc12 do in these assays?
Dyrk1A ADPGlo: -3.7; CAL PDZ FP-1: 0.8; Yeast UUG start: 285.8*; dFosB activator: -15.2; CAL PDZ FP-2: -0.9; CDK5 p35 inh: 3.7

How did CCOC(=O)COc1ccc2ccccc2c1/C=C/[N+](=O)[O-] do in these assays?
Dyrk1A ADPGlo: -5.0; CAL PDZ FP-1: -2.2; dFosB activator: -7.3; CAL PDZ FP-2: -0.4; CDK5 p35 inh: 0.0

How did CS(=O)(=O)Nc1ccc2c(c1)[C@@H]1C[C@@H](CC(=O)NCc3ccc(-c4ccccc4)cc3)O[C@H](CO)[C@@H]1O2 do in these assays?
Yeast UUG start: 3.3

Results for COc1ccc(C=O)cc1Cn1c(=O)n(CCC(=O)NCc2ccco2)c(=O)c2sccc21 ?
Dyrk1A ADPGlo: 3.6; CAL PDZ FP-1: -10.7; Yeast UUG start: -13.9; dFosB activator: 93.8*; CAL PDZ FP-2: -1.8; CDK5 p35 inh: -0.8

What do the screens show for `Cc1ccc(C)c(Cn2c(=O)n(CCC(=O)NCc3ccco3)c(=O)c3sccc32)c1`?
Dyrk1A ADPGlo: 4.7; Yeast UUG start: -16.7; dFosB activator: 15.0; CAL PDZ FP-2: 0.4; CDK5 p35 inh: 0.8

Results for COc1cccc(CNC(=O)C[C@H]2C=C[C@@H](NC(C)=O)[C@@H](CO)O2)c1 ?
Yeast UUG start: -8.1

How did Cc1nc(SCCC(=O)O)c2cc(-c3ccccc3)sc2n1 do in these assays?
Dyrk1A ADPGlo: 1.8; CAL PDZ FP-1: 55.3*; Yeast UUG start: -14.9; dFosB activator: -29.0; CAL PDZ FP-2: -2.4; CDK5 p35 inh: 2.3

Results for CCCNC(=O)C[C@@H]1C[C@H]2c3cc(NS(=O)(=O)c4cccc(OC)c4)ccc3O[C@H]2[C@@H](CO)O1 ?
Yeast UUG start: -6.9
